Test [1] addresses hMAO-B (Homo sapiens, UniProt P27338).
Test [2] concerns NRF2-ARE signaling pathway. The test is described as follows: cells. In kind it is cell-based. The conditions noted are these: Arec32, 24 h, read-out: NRF2 (CD, μM), concentration required to double luciferase activity, AREc32 cells, 24 h. How it is done: AREc32 cells were plated in 96-well white plates (2 × 10^4 cells/well). […]. The AREc32 cells constitutively express the plasmid pGL-8xARE that implements eight copies of the EpRE sequences, followed by the luciferase reporter gene. Therefore, NRF2 induction is related to the activation of EpRE sequences, expressing luciferase at the same extent as EpRE sequences are activated. The Luciferase Assay System (Promega E1500) was used according to the provider’s protocol, and luminescence was quantified in an Orion II microplate luminometer (Berthold, Germany). Fold induction of luciferase activity was normalized to basal conditions. Data are expressed as CD values, expressing the concentration required to double the luciferase activity. CD values were calculated from dose–response curves generated from the fold induction of control conditions versus inducer concentration and fitted by nonlinear regression and data interpolated to twofold induction concentration.[68]

Chains of the proteins cited; added tags and fusions are not shown.
UniProt P27338, whole entry: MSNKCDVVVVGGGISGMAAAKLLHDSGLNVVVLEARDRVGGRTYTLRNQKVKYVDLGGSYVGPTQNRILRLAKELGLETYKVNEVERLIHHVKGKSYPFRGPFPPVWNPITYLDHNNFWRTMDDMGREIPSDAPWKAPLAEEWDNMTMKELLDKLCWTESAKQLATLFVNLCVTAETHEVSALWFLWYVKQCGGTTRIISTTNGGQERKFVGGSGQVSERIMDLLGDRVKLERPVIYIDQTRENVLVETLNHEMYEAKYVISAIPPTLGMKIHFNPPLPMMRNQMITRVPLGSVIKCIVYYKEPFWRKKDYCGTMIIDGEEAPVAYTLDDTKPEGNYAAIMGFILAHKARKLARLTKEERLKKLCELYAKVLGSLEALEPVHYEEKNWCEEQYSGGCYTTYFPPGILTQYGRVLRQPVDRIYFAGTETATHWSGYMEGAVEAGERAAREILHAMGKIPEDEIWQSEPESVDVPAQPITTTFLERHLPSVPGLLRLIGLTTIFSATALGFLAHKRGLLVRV

SMILES strings stand for the structures. A value given as a limit tells only on which side of the number the result lay.

On to `O=c1[nH]nc(/C=C/c2cccc([N+](=O)[O-])c2)o1` [2c, 5-[(E)-2-(3-Nitrophenyl)ethenyl]-1,3,4-oxadiazol-2(3H)-one], for which the “hMAOs SI” value in test [1] is reported as above 47.2. Besides, the EC (2-fold induction) in test [2] amounted to 8.42 µM.

Consider `O=c1[nH]nc(/C=C/c2ccc3c(c2)OCO3)o1` [2i, 5-[(E)-2-(2H-1,3-Benzodioxol-5-yl)ethenyl]-1,3,4-oxadiazol-2(3H)-one], for which the “hMAOs SI” value in test [1] was above 1.8. Further, the EC (2-fold induction) in test [2] is above 60 µM.

For `C#CCn1nc(/C=C/c2ccccc2)oc1=O` [4a, 5-[(E)-2-Phenylethenyl]-3-(prop-2-yn-1-yl)-1,3,4-oxadiazol-2(3H)-one], the “hMAOs SI” value in test [1] is given as above 5.1. Also, in test [2], the EC (2-fold induction) was 16.9 µM.

As to `C#CCn1nc(/C=C/c2cccc(OC)c2)oc1=O` [4d, 5-[(E)-2-(3-Methoxyphenyl)ethenyl]-3-(prop-2-yn-1-yl)-1,3,4-oxadiazol-2(3H)-one], in test [1], the “hMAOs SI” value was above 78.1. In test [2], the EC (2-fold induction) stood at 7.44 µM.

Take `C#CCn1nc(/C=C/c2ccc(OC)cc2)oc1=O` [4e, 5-[(E)-2-(4-Methoxyphenyl)ethenyl]-3-(prop-2-yn-1-yl)-1,3,4-oxadiazol-2(3H)-one]: in test [1], the “hMAOs SI” value was above 6.2. Moreover, the EC (2-fold induction) in test [2] was determined as 9.83 µM.

For `C#CCn1nc(/C=C/c2cccc(O)c2)oc1=O` [5l, 5-[(E)-2-(3-Hydroxyphenyl)ethenyl]-3-(prop-2-yn-1-yl)-1,3,4-oxadiazol-2(3H)-one], in test [1], the “hMAOs SI” value is reported as above 14.2. Besides, the EC (2-fold induction) in test [2] was determined as 8.05 µM.

Regarding `C#CCNC(=O)/C=C/c1ccc(O)cc1` [6m, (2E)-3-(4-Hydroxyphenyl)-N-(prop-2-yn-1-yl)prop-2-enamide], in test [1], the “hMAOs SI” value was above 1.6. Also, the EC (2-fold induction) in test [2] is above 60 µM.

With `C#CCNC(=O)/C=C/c1ccc(O)c(O)c1` [6o, (2E)-3-(3,4-Dihydroxyphenyl)-N-(prop-2-yn-1-yl)prop-2-enamide], the “hMAOs SI” value in test [1] was below 0.9. For the same molecule, the EC (2-fold induction) in test [2] came to 19.2 µM.

On to `C#CCNC/C=C/c1ccc(O)c(OC)c1` [8n, 2-Methoxy-4-{(1E)-3-[(prop-2-yn-1-yl)amino]prop-1-en-1-yl}phenol], for which the “hMAOs SI” value in test [1] is reported as below 0.6. In addition, the EC (2-fold induction) in test [2] is 22.3 µM.

(Values after article PMC8958504 (Journal of Medicinal Chemistry, 2022).)
